Measurements: ChEMBL document CHEMBL4311981, “Synthesis, anticancer activity, and molecular modeling of 1,4-naphthoquinones that inhibit MKK7 and Cdc25” (Eur J Med Chem, 2019)

Molecular target: T1, M-phase inducer phosphatase 2 (Homo sapiens, UniProt P30305)
T1 sequence (P30305 whole entry): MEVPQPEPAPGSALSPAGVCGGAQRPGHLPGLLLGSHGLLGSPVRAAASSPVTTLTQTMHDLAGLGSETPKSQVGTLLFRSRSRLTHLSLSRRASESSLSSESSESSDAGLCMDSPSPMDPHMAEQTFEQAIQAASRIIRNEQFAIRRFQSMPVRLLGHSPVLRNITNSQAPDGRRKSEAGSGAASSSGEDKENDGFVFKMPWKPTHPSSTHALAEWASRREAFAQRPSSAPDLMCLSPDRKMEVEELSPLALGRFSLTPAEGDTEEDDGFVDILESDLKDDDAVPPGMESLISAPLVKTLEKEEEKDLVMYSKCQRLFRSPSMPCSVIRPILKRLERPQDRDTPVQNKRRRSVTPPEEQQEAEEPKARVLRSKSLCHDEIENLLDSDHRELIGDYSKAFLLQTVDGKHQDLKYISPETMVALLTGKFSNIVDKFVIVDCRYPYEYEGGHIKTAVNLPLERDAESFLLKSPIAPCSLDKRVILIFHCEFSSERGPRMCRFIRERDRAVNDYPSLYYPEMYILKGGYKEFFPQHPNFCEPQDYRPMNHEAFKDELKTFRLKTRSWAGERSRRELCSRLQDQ

With `CC1=CC(=O)c2c(O)cccc2C1=O` [PLUMBAGIN] the IC50 was 3.1 µM.
